Values quoted from earlier work as cited in US20230218693A1, “HEMP SPROUT PRODUCTS AND METHODS FOR PRODUCING SAME” (priority 2020, published 2023).

Target: T1, mPGES-1 (Homo sapiens, UniProt O14684)
T1 sequence (O14684 1-152): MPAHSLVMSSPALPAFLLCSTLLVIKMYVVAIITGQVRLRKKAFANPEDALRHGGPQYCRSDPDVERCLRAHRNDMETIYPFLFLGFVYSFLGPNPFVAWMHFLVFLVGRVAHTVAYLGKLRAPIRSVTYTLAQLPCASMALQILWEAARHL
Details: mPGES-1, cell-free; 10 μM

For `CC(C)c1ccc2c(c1)c(SC(C)(C)C)c(CC(C)(C)C(=O)O)n2Cc1ccc(Cl)cc1` [MK-886, reference compound], the “Reference control, % inhibition at indic. conc.” value is listed as “MK-886 (10 μM), 83 ± 1%”.
